{"source": "patent US20260062422A1", "about": "(Halda Therapeutics OpCo, Inc., priority 2022, published 2026)", "key": {"T47D cells": {"system": "T47D cells", "assay": "Cellular growth inhibition assay for T47D cells, CellTiter-Glo", "settings": "72 hours treatment, CellTiter-Glo 2.0 cell viability", "experimental": "T47D cells were purchased from American Type Cell Culture (ATCC Cat #HTB-133) and then seeded on poly-D-lysine coated, black clear-bottom 384-well plates at 3000/well in 25 μL Dulbecco's Modified Eagle Medium (DMEM) supplemented with 10% w/w Fetal bovine serum (FBS), 0.2 units/mL recombinant human insulin (Gibco Cat #12585014), and 1% w/w Pen-Strep. Pen-Strep is a commercially available mixture of penicillin G and streptomycin, which is used in mammalian cell culture media to prevent bacterial contamination. Dulbecco's Modified Eagle Medium (DMEM) supplemented with 10% w/w fetal bovine serum (FBS), 0.2 units/mL recombinant human insulin, and 1% w/w Pen-Strep is herein referred to as Treatment Medium. Following seeding of cells in the plates, the plates were spun at 300×g for 30 seconds, then equilibrated to room temperature for 30 minutes, and then deposited in a humidified tissue culture incubator maintained at 37° C. with 5% CO2.\nAt 24 hours after seeding of the cells, dilutions of test compound were prepared in DMSO and dissolved in Treatment Medium, to achieve a final DMSO concentration of 0.5% w/w, thereby providing the Test Compound Solution. A 25 μL aliquot of the Test Compound Solution was added to cells in the well plates. An equal volume of a solution containing DMSO and Treatment Medium was used as a negative control. Following treatment of cells with Test Compound Solution or said equal volume of a solution containing DMSO and Treatment Medium, the plates were spun at 300×g for 30 seconds, and then left in an incubator for 72 hours.\nAt the end of the treatment duration, cell viability was quantified with CellTiter-Glo 2.0 reagent (Promega Cat #G9243). For this purpose, plates were equilibrated to room temperature for 30 minutes, and then 25 μL of CellTiter-Glo 2.0 reagent was added to cells in the plate wells. […] Following incubation, the plates were spun at 3000×g for 30 seconds, then sealed with an optical adhesive cover, and luminescence readings were measured with an EnVision Plate Reader (Perkin Elmer).\nData was normalized using zero luminescence for baseline. […]"}, "[1]": {"system": "T-Rex 293 cell line SC3 cells having increased expression of androgen receptor protein due to exposure to doxycycline", "assay": "Cellular growth inhibition, T-Rex 293 SC3 cells with doxycycline (androgen receptor induced), CellTiter-Glo", "settings": "T-Rex 293 SC3 cells with 10 ng/mL doxycycline (increased androgen receptor expression), 72 hours", "experimental": "The following types of cells were prepared for this experiment: (i) a T-Rex 293 cell line having increased expression of androgen receptor protein due to exposure to doxycycline and (ii) a T-Rex 293 cell line lacking increased expression of androgen receptor protein. Ability of the test compounds to inhibit proliferation of the foregoing cell types was evaluated according to the procedures set forth below.\nThe doxycycline-inducible androgen receptor protein expressing cell line was established using the following protocol: T-Rex 293 cells were purchased from Invitrogen (Cat #R71007) and transfected using Lipofectamine 2000 with the wild-type androgen receptor protein sequence cloned into the pcDNA4/TO vector. Transfected cells were selected using 400 μg/mL Zeocin (Invitrogen Cat #R25001). Following selection, single clones were raised and maintained in Dulbecco's Modified Eagle Medium (DMEM) supplemented with 10% w/w Tetracycline-free fetal bovine serum (FBS) and 250 μg/mL Zeocin. Clones were analyzed for expression of androgen receptor protein in the presence and absence of 10 ng/mL doxycycline (Sigma Cat #D9891), and a single doxycycline-inducible clone (hereinafter “SC3”) was selected for use in downstream assays. […]\nAt 24 hours after seeding of the cells, dilutions of test compound were prepared in DMSO and dissolved in Treatment Medium, to achieve a final DMSO concentration of 0.5% w/w, thereby providing the Test Compound Solution. […] At the end of the treatment duration, cell viability was quantified with CellTiter-Glo 2.0 reagent (Promega Cat #G9243). […] Following incubation, the plates were spun at 3000×g for 30 seconds, then sealed with an optical adhesive cover, and luminescence readings were measured with an EnVision Plate Reader. Data was normalized using zero luminescence for baseline. […]"}}, "data": [{"smiles": "CCNC(=O)C[C@@H]1N=C(c2ccc(CN3CCN(c4ncc(C(=O)N[C@H]5C(C)(C)[C@H](Oc6ccc(C#N)c(Cl)c6)C5(C)C)cn4)CC3)cc2)c2c(sc(C)c2C)-n2c(C)nnc21", "values": [{"measurement": "GI50", "setting": "T47D cells", "result": "< 500", "unit": "nM"}, {"measurement": "GI50", "setting": "[1]", "result": "< 500", "unit": "nM"}]}, {"smiles": "CCNC(=O)C[C@@H]1N=C(c2ccc(CC3CCN(c4ncc(C(=O)N[C@H]5C(C)(C)[C@H](Oc6ccc(C#N)c(Cl)c6)C5(C)C)cn4)CC3)cc2)c2c(sc(C)c2C)-n2c(C)nnc21", "values": [{"measurement": "GI50", "setting": "T47D cells", "result": "500 to 1500", "unit": "nM"}, {"measurement": "GI50", "setting": "[1]", "result": "< 500", "unit": "nM"}]}, {"smiles": "CCNC(=O)C[C@@H]1N=C(c2ccc(N3CC4(C3)CN(c3ncc(C(=O)N[C@H]5C(C)(C)[C@H](Oc6ccc(C#N)c(Cl)c6)C5(C)C)cn3)C4)cc2)c2c(sc(C)c2C)-n2c(C)nnc21", "values": [{"measurement": "GI50", "setting": "T47D cells", "result": "500 to 1500", "unit": "nM"}, {"measurement": "GI50", "setting": "[1]", "result": "< 500", "unit": "nM"}]}]}
